Counter-ions that a name gives are not always drawn.
Molecular target: His-tagged human recombinant kinase full-length Akt1 (Homo sapiens (Human), UniProt P31749)
Assay: Akt1 kinase assay (Akt1 TR-FRET assay)
Type: biochemical
Details: 10 μM ATP, 60 min at 22° C., read-out: Akt1 median IC50

Protein sequences, listed by entry. Tags and fused reporters are not part of them. Lines headed by an entry give the natural chain unless they say otherwise; changes in a name come on top.
UniProt P31749: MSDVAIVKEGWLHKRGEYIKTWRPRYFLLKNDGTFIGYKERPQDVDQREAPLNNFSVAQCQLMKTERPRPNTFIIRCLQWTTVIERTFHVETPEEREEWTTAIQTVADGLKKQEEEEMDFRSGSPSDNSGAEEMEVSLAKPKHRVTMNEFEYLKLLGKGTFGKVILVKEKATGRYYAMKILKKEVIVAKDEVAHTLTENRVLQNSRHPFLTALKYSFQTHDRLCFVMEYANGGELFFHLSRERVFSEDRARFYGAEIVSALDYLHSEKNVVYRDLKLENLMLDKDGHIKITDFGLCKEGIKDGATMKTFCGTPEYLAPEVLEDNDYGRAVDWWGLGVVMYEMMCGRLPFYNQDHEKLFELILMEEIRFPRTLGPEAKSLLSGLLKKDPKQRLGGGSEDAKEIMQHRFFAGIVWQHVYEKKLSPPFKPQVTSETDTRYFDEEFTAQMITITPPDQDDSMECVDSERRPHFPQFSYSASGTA
UniProt P31751: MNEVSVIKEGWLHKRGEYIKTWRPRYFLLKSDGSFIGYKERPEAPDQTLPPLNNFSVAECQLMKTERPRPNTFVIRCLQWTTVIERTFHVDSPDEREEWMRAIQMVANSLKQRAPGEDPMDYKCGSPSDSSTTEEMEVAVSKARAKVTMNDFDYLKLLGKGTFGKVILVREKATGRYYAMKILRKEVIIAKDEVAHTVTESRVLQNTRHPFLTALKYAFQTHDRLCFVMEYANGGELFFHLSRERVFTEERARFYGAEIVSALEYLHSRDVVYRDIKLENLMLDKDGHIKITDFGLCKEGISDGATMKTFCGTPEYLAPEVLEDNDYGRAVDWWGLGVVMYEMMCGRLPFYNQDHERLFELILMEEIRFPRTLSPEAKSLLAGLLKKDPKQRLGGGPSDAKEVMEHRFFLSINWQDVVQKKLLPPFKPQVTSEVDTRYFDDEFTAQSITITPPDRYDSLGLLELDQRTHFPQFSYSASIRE

In order of falling IC50:
1. NC1(c2ccc(-c3nc4c(O)ccnn4c3-c3ccccc3)cc2)CCC1 [Example 32, 2-[4-(1-Aminocyclobutyl)phenyl]-3-phenylimidazo[1,2-b]pyridazin-8-ol]  3700 nM
2. NC1(c2ccc(-c3nc4ccc(NC(=O)C(F)(F)F)nn4c3-c3ccccc3)cc2)CCC1 [Example 40, N-{2-[4-(1-Aminocyclobutyl)phenyl]-3-phenylimidazo[1,2-b]pyridazin-6-yl}-2,2,2-trifluoroacetamide]  1700 nM
3. Nc1ccc2nc(-c3ccc(C4(N)CCC4)cc3)c(-c3ccccc3)n2n1 [Example 35, 2-[4-(1-Aminocyclobutyl)phenyl]-3-phenylimidazo[1,2-b]pyridazin-6-amine]  350 nM
4. NC1(c2ccc(-c3nc4c(-c5ccc(F)cc5)ccnn4c3-c3ccccc3)cc2)CCC1 [Example 44, 1-{4-[8-(4-Fluorophenyl)-3-phenylimidazo[1,2-b]pyridazin-2-yl]phenyl}cyclobutanamine]  190 nM
5. Nc1ccnn2c(-c3ccccc3)c(-c3ccc(C4(N)CCC4)cc3)nc12 [Example 48, 2-[4-(1-Aminocyclobutyl)phenyl]-3-phenylimidazo[1,2-b]pyridazin-8-amine]  180 nM
6. NC1(c2ccc(-c3nc4ccc(C(=O)NCCO)nn4c3-c3ccccc3)cc2)CCC1 [Example 70, 2-[4-(1-Aminocyclobutyl)phenyl]-N-(2-hydroxyethyl)-3-phenylimidazo[1,2-b]pyridazine-6-carboxamide]  130 nM
7. NC1(c2ccc(-c3nc4c(C5CC5)cc(Cl)nn4c3-c3ccccc3)cc2)CCC1 [Example 46, 1-[4-(6-Chloro-8-cyclopropyl-3-phenylimidazo [1,2-b]pyridazin-2-yl)phenyl]cyclobutanamine]  110 nM
8. CCc1cc(OC)c2nc(-c3ccc(C4(N)CCC4)cc3)c(-c3ccccc3)n2n1 [Example 13, 1-[4-(6-Ethyl-8-methoxy-3-phenylimidazo[1,2-b]pyridazin-2-yl)phenyl]cyclobutanamine]  78 nM
9. CCNC(=O)c1ccc2nc(-c3ccc(C4(N)CCC4)cc3)c(-c3ccccc3)n2n1 [Example 66, 2-[4-(1-Aminocyclobutyl)phenyl]-N-ethyl-3-phenylimidazo[1,2-b]pyridazine-6-carboxamide]  51 nM
10. COC(=O)c1ccnn2c(-c3ccccc3)c(-c3ccc(C4(N)CCC4)cc3)nc12 [Example 31, Methyl 2-[4-(1-aminocyclobutyl)phenyl]-3-phenylimidazo[1,2-b]pyridazine-8-carboxylate]  48 nM
11. CNC(=O)c1cc(OC)c2nc(-c3ccc(C4(N)CCC4)cc3)c(-c3ccccc3)n2n1 [Example 26, 2-[4-(1-Aminocyclobutyl)phenyl]-8-methoxy-N-methyl-3-phenylimidazo[1,2-b]pyridazine-6-carboxamide]  6.3 nM
12. COCCOc1cc(C(N)=O)nn2c(-c3ccccc3)c(-c3ccc(C4(N)CCC4)cc3)nc12 [Example 28, 2-[4-(1-Aminocyclobutyl)phenyl]-8-(2-methoxy-ethoxy)-3-phenylimidazo[1,2-b]pyridazine-6-carboxamide]  5 nM
13. CNC(=O)c1cc(OCC2CC2)c2nc(-c3ccc(C4(N)CCC4)cc3)c(-c3ccccc3)n2n1 [Example 64, 2-[4-(1-Aminocyclobutyl)phenyl]-8-(cyclopropylmethoxy)-N-methyl-3-phenylimidazo[1,2-b]pyridazine-6-carboxamide]  4.8 nM
14. NC(=O)c1cc(C(N)=O)c2nc(-c3ccc(C4(N)CCC4)cc3)c(-c3ccccc3)n2n1 [Example 34, 2-[4-(1-Aminocyclobutyl)phenyl]-3-phenylimidazo[1,2-b]pyridazine-6,8-dicarboxamide]  3.9 nM

Molecular target: His-tagged human recombinant kinase full-length Akt2 (Homo sapiens (Human), UniProt P31751)
Assay: Akt2 kinase assay (Akt2 TR-FRET assay)
Type: biochemical
Details: 10 μM ATP, 60 min at 22° C., read-out: Akt2 median IC50

In order of rising IC50:
1. COCCOc1cc(C(N)=O)nn2c(-c3ccccc3)c(-c3ccc(C4(N)CCC4)cc3)nc12 [Example 28, 2-[4-(1-Aminocyclobutyl)phenyl]-8-(2-methoxy-ethoxy)-3-phenylimidazo[1,2-b]pyridazine-6-carboxamide]  5.4 nM
2. CCOc1cc(C(=O)NC)nn2c(-c3ccccc3)c(-c3ccc(C4(N)CCC4)cc3)nc12 [Example 22, 2-[4-(1-Aminocyclobutyl)phenyl]-8-ethoxy-N-methyl-3-phenylimidazo[1,2-b]pyridazine-6-carboxamide]  18 nM
3. NC(=O)c1cc(-c2cc[nH]n2)c2nc(-c3ccc(C4(N)CCC4)cc3)c(-c3ccccc3)n2n1 [Example 60, 2-[4-(1-Aminocyclobutyl)phenyl]-3-phenyl-8-(1H-pyrazol-3-yl)imidazo[1,2-b]pyridazine-6-carboxamide]  24 nM
4. COC(=O)c1cc(OC)c2nc(-c3ccc(C4(N)CCC4)cc3)c(-c3ccccc3)n2n1 [Example 12, Methyl 2-[4-(1-aminocyclobutyl)phenyl]-8-methoxy-3-phenylimidazo[1,2-b]pyridazine-6-carboxylate]  38 nM
5. CSc1ccc2nc(-c3ccc(C4(N)CCC4)cc3)c(-c3ccccc3)n2n1 [Example 36, 1-{4-[6-(Methylsulfanyl)-3-phenylimidazo[1,2-b]pyridazin-2-yl]phenyl}cyclobutanamine]  54 nM
6. COc1cc(-c2cn[nH]c2)c2nc(-c3ccc(C4(N)CCC4)cc3)c(-c3ccccc3)n2n1 [Example 15, 1-{4-[6-Methoxy-3-phenyl-8-(1H-pyrazol-4-yl)imidazo[1,2-b]pyridazin-2-yl]phenyl} cyclobutanamine HCl salt]  56 nM
7. NC1(c2ccc(-c3nc4c(-c5ncc[nH]5)cc(Cl)nn4c3-c3ccccc3)cc2)CCC1 [Example 24, 1-{4-[6-Chloro-8-(1H-imidazol-2-yl)-3-phenyl-imidazo[1,2-b]pyridazin-2-yl]phenyl} cyclobutanamine]  81 nM
8. CC(=O)c1ccc2nc(-c3ccc(C4(N)CCC4)cc3)c(-c3ccccc3)n2n1 [Example 43, 1-{2-[4-(1-Aminocyclobutyl)phenyl]-3-phenylimidazo[1,2-b]pyridazin-6-yl}ethanone]  110 nM
9. COc1cc(-c2ccnn2C)c2nc(-c3ccc(C4(N)CCC4)cc3)c(-c3ccccc3)n2n1 [Example 74, 1-{4-[6-Methoxy-8-(1-methyl-1H-pyrazol-5-yl)-3-phenylimidazo[1,2-b]pyridazin-2-yl]phenyl}cyclobutanamine]  120 nM
10. CS(=O)(=O)c1ccc2nc(-c3ccc(C4(N)CCC4)cc3)c(-c3ccccc3)n2n1 [Example 38]  140 nM
11. CCCc1ccnn2c(-c3ccccc3)c(-c3ccc(C4(N)CCC4)cc3)nc12 [Example 47, 1-[4-(3-Phenyl-8-propylimidazo[1,2-b]pyridazin-2-yl)phenyl]cyclobutanamine]  350 nM
12. CN(C)C(=O)c1ccc2nc(-c3ccc(C4(N)CCC4)cc3)c(-c3ccccc3)n2n1 [Example 69, 2-[4-(1-Aminocyclobutyl)phenyl]-N,N-dimethyl-3-phenylimidazo[1,2-b]pyridazine-6-carboxamide]  750 nM
13. NC1(c2ccc(-c3nc4ccc(NC(=O)C(F)(F)F)nn4c3-c3ccccc3)cc2)CCC1 [Example 40, N-{2-[4-(1-Aminocyclobutyl)phenyl]-3-phenylimidazo[1,2-b]pyridazin-6-yl}-2,2,2-trifluoroacetamide]  1400 nM

Tested on: phospho-AKT at S473
Assay: Cellular p-AKT1/2/3-S473 assay in KPL-4 cells
Type: cell-based
Details: Homo sapiens, KPL4; KPL-4 breast tumour cell line, compound treatment 2 hours; read-out: pAKT-S473 median IC50

In the case of CCc1cc(OC)c2nc(-c3ccc(C4(N)CCC4)cc3)c(-c3ccccc3)n2n1 [Example 13, 1-[4-(6-Ethyl-8-methoxy-3-phenylimidazo[1,2-b]pyridazin-2-yl)phenyl]cyclobutanamine], the IC50 is reported as 82 nM.

— patent publication US9604989B2, “Imidazopyridazines as Akt kinase inhibitors” (Bayer Intellectual Property GmbH, priority 2011, dated 2017)
